This passage reports IC50 results from ChEMBL document CHEMBL4425142, “Inhibitors of diacylglycerol lipases in neurodegenerative and metabolic disorders” (Bioorg Med Chem Lett, 2016).

Chains of the proteins cited; added tags and fusions are not shown.
UniProt Q9Y4D2, whole entry, looked up: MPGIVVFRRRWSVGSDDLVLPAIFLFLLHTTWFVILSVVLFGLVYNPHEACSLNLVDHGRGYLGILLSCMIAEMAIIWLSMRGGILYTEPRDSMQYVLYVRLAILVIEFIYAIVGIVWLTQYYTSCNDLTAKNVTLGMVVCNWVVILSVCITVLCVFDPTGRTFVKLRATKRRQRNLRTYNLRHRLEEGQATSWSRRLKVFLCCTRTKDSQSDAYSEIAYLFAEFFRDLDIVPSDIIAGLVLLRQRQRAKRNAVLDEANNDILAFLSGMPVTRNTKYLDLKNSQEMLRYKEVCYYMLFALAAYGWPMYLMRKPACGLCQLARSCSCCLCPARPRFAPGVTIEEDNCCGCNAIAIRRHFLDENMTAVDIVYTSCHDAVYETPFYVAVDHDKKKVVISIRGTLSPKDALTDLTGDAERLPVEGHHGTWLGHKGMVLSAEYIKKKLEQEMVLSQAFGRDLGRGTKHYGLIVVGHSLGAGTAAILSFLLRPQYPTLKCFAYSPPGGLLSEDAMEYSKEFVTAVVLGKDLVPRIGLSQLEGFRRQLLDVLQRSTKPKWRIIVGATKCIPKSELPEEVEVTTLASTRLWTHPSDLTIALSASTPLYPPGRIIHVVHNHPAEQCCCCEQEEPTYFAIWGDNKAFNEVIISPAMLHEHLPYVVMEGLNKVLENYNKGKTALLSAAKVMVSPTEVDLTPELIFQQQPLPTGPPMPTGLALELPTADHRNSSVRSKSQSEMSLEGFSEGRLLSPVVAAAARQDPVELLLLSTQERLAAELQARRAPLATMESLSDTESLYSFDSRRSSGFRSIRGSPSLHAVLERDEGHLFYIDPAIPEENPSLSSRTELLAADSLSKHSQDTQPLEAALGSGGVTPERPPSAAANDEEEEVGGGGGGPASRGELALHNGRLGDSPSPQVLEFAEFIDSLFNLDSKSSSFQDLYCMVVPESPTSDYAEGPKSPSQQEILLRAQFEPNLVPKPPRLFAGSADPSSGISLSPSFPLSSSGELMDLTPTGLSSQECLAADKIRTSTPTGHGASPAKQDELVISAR

Broadly, the IC50 is the concentration needed to halve the response being measured.

The target of this test is Diacylglycerol lipase-alpha (Homo sapiens, UniProt Q9Y4D2).

Compound `CCCCCCC/C=C\CCCCCCCC(=O)OC(COC(C)C)COP(C)(=O)F` (stereo unspecified) had an IC50 of 0.69 µM.
